Earlier results as cited in US20110256229A1, “RAPID-ACTING PHARMACEUTICAL COMPOSITION” (published 2011).

Conditions: lozenge, transbucchal; Farrar et al. 1998

CCC(=O)N(c1ccccc1)C1CCN(CCc2ccccc2)CC1
Time to peak plasma concentrations: around 20 minutes

This is a selection: effects in other tests are not listed, and their absence says nothing.
